Laboratory results published in publication PMC4728560 (Scientific Reports, 2016).
Like-named read-outs stand apart in the source and are kept apart here.

Sequences of proteins named here, by UniProt entry; tags and fusion partners are left off. A line that says so, or that is headed by a name, gives the form on record, which may keep a tag or linker.
UniProt Q07817, with tags, fused parts or gaps DEL27-82: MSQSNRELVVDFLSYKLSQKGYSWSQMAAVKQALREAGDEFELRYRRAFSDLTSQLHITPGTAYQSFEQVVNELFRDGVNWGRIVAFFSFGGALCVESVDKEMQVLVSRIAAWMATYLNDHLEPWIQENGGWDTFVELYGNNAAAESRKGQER

Biological target: T1, Bcl-xL (Homo sapiens, UniProt Q07817, DEL27-82)
T1 construct: one containing the fragment 1-26, and the other the fragment 81-209; 6His (N, cleaved yes); made in house; host or cells: Escherichia coli BL21 (DE3) pRARE2
Assay: Isothermal Titration Calorimetry, peptides and Bcl-xL
Type: binding
Settings: ITC, 30 °C
Experimental: In red, the conserved hydrophobic residues of the BH3 domain (named h1 (P1), h2 (P2), h3 (P3) and h4 (P4)). In green, the GD signature of BH3 domains. In blue, the conserved charged residues. […] Each experiment was carried out at 30 °C in 50 mM ammonium bicarbonate pH 9.
Titrations were done by isothermal titration calorimetry (ITC) assays using an ITC200 calorimeter from GE-Microcal. See Supplementary Information for full details. […]
hybrid-FLAG peptides, rabbit anti-FLAG (Sigma) and anti-rabbit-FITC (Abcam) were used.
Isothermal Titration Calorimetry experiments
Titrations were done by isothermal titration calorimetry (ITC) assays using an ITC200 calorimeter from GE-Microcal. Bcl-xL was used at 0.065 mM in 50mM bicarbonate ammonium […]
pH 9. […] Titrations were carried out at 30°C. Data were analyzed using Microcal Origin software provided by the ITC manufacturer (GE-Microcal).
High-throughput crystallization screening was performed using a Mosquito liquid transfer robot (TTP Labtech) and the sitting-drop vapor diffusion method. Crystals were obtained at 20°C by mixing 0.2μL of reservoir solution (100mM Pipes pH 7, 1.5M Tris-sodium citrate) with 0.2μL of […]
ammonium bicarbonate pH 9.3 and by equilibrating the mixture against 40μl of reservoir

Kd (50 mM ammonium bicarbonate pH 9 (Fig. 4B), Bcl-xL 0.043 mM, TCTP-BH3 […], read-out: Kd): 10 to 15 µM | Kd (50 mM ammonium bicarbonate pH 9, Bcl-xL […], TCTP-BH3 1.39 mM (Fig. 1B), read-out: dissociation constant): 12 µM
SMILES: CC[C@H](C)[C@H](NC(=O)[C@H](CCC(=O)O)NC(=O)[C@H](CCCNC(=N)N)NC(=O)[C@@H](NC(=O)[C@H](CCCCN)NC(=O)[C@H](Cc1ccc(O)cc1)NC(=O)[C@@H](NC(=O)[C@H](CC(=O)O)NC(=O)[C@H](CO)NC(=O)[C@H](Cc1ccccc1)NC(=O)[C@H](CCSC)NC(=O)[C@H](CCC(=O)O)NC(=O)[C@@H](N)CC(=O)O)[C@@H](C)CC)[C@@H](C)CC)C(=O)N[C@@H](C)C(=O)N[C@@H](CC(=O)O)C(=O)NCC(=O)N[C@@H](CC(C)C)C(=O)N[C@@H](CS)C(=O)N[C@@H](CC(C)C)C(=O)N[C@@H](CCC(=O)O)C(=O)N[C@H](C(=O)O)C(C)C [TCTP11–31]
